{"source": "patent US6774144B1", "about": "“Methods and formulations for the treatment of infectious bursal disease in avian subjects” (The University of North Carolina at Chapel Hill, priority 1999, dated 2004)", "tested_on": "IBDV, APHIS strain"}
{"compound": "N=C(N)c1ccc2oc3ccc(C(=N)N)cc3c2c1", "note": "[SW066]", "values": [{"measurement": "surviving chicks: organ weights, histopathology, and flow cytometry", "setting": "in vivo", "value": "appeared normal"}, {"measurement": "delay of embryo death", "setting": "ten day old chick embryos", "value": "approximately 24 hours"}, {"measurement": "effect on EID50", "setting": "ten day old chick embryos, chorio-allantoic membrane route", "value": "did not alter the EID50"}]}
